Tested on: DHFR (human versus Pneumocystis jirovecii)
Test: Selectivity ratio of IC50 for inhibition of recombinant human DHFR using 18 uM DHFA as substrate to IC50 for inhibition of Pneumocystis jirovecii DHFR using 18 uM DHFA as substrate
Type: toxicity
Details: recombinant human DHFR and Pneumocystis jirovecii DHFR, probe DHFA (substrate), read-out: Ratio IC50

In the case of `COc1ccc(Nc2cnc3nc(N)nc(N)c3c2)cc1`, the selectivity ratio was 9.

Reference: ChEMBL document CHEMBL4387751, “Development of substituted pyrido[3,2-d]pyrimidines as potent and selective dihydrofolate reductase inhibitors for pneumocystis pneumonia infection” (Bioorg Med Chem Lett, 2019)
